Assay results from ChEMBL document CHEMBL3271956, “Oxindole-3-spiropyrrolidines and -piperidines. Synthesis and local anesthetic activity” (J Med Chem, 1976).

Test system: Mus musculus
Experiment: Toxicity in iv dosed mouse relative to lidocaine
Type: organism-based
Settings: in vivo

Work on CCN(CC)CC(=O)Nc1c(C)cccc1C [LIDOCAINE] yielded a Ratio of 1.
